Test results reported in paper PMC10141604, “Small-Molecule Inhibition of Androgen Receptor Dimerization as a Strategy against Prostate Cancer” (ACS Central Science, 2023).
pIC50: −log10 of the molar value.

Amino acid sequences for entries named in this document (tags omitted).
UniProt P10275, whole entry T878A: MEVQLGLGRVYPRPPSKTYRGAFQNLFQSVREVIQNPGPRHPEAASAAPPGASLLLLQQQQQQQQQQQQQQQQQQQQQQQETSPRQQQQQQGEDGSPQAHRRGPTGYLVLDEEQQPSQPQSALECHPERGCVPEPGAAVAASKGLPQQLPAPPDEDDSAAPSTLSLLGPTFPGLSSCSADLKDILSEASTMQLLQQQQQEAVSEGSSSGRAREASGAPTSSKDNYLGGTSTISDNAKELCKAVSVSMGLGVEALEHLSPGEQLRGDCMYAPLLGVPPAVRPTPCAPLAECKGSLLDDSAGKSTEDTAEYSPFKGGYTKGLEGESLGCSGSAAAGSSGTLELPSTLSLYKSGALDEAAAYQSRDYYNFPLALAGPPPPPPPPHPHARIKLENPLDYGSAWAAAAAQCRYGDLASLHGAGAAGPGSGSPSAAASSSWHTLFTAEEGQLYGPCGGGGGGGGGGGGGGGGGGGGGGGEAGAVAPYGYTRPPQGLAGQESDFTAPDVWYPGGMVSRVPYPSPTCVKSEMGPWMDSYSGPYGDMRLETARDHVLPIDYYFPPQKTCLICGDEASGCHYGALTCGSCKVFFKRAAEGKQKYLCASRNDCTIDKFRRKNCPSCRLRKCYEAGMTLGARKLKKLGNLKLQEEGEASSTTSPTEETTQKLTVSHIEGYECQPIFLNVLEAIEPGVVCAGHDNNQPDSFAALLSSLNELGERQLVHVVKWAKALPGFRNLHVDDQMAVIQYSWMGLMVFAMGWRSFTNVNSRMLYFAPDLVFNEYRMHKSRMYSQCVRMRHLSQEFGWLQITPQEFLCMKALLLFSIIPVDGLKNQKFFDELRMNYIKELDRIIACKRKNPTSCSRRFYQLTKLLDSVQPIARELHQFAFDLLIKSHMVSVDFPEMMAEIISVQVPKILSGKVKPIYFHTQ

biological target: AR (Homo sapiens, UniProt P10275, T878A); assay: AR transcriptional activity assay (LNCaP-ARR2PB-eGFP cells); settings: read-out: IC50, AR transcriptional activity, 5 nM DHT, 3 days

pIC50	SMILES
5.68	CC(=O)Cc1nsc(NC(=O)c2cc(-c3cc(Cl)ccc3Cl)oc2C)n1
6.10	CC(=O)Cc1nsc(NC(=O)c2cc(-c3cccc([N+](=O)[O-])c3)oc2C)n1
5.99	CC(=O)Cc1nsc(NC(=O)c2cc(-c3ccc(Cl)cc3)oc2C)n1
6.64	CC(=O)Cc1nsc(NC(=O)c2cc(-c3cccc(Br)c3)oc2C)n1
< 4.30	CC(=O)Cc1nsc(NC(=O)c2cc(-c3cccc(NC(C)=O)c3)oc2C)n1
< 4.30	CC(=O)Cc1nsc(NC(=O)c2cc(-c3cccnc3)oc2C)n1
5.39	CC(=O)Cc1nsc(NC(=O)c2cc(-c3ccccc3)oc2C)n1
5.02	CC(=O)Cc1nsc(NC(=O)c2cc(-c3ccc4ccccc4c3)oc2C)n1
4.99	CC(=O)Cc1nsc(NC(=O)c2cc(-c3cccc(OC(C)=O)c3)oc2C)n1
6.54	CC(=O)Cc1nsc(NC(=O)c2cc(-c3cccc(Cl)c3)oc2C)n1
6.30	CC(=O)Cc1nsc(NC(=O)c2cc(-c3cccc(C(C)(C)C)c3)oc2C)n1
< 4.30	CC(=O)Cc1nsc(NC(=O)c2coc(-c3ccc(Cl)c(Cl)c3)n2)n1
4.79	CC(=O)Cc1nsc(NC(=O)c2cc(-c3cccc4ccccc34)oc2C)n1
4.83	CC(=O)Cc1nsc(NC(=O)c2cc(-c3cccc(O)c3)oc2C)n1
5.42	CC(=O)Cc1nsc(NC(=O)c2cc(-c3cc(Cl)cc(Cl)c3)oc2C)n1
7.10	COc1cccc(-c2cc(C(=O)Nc3nc(CC(C)=O)ns3)c(C)o2)c1
6.85	CC(=O)Cc1nsc(NC(=O)c2cc(-c3cccc(C#N)c3)oc2C)n1
5.45	CC(=O)Cc1nsc(NC(=O)c2cc(-c3cccc(N)c3)oc2C)n1
5.96	CC(=O)Cc1nsc(NC(=O)c2cc(-c3cc(C(F)(F)F)ccc3Cl)oc2C)n1
< 4.30	CC(=O)Cc1nsc(NC(=O)c2cc(-c3cccc(C(N)=O)c3)oc2C)n1
5.24	CC(=O)Cc1nsc(NC(=O)c2cc(-c3ccc(Cl)cc3Cl)oc2C)n1
6.07	CC(=O)Cc1nsc(NC(=O)c2cc(-c3ccccc3Cl)oc2C)n1
6.15	CC(=O)Cc1nsc(NC(=O)c2cc(-c3cccc(F)c3)oc2C)n1
